In patent US20170226139A1, “CRYSTALLINE SALTS OF (Z)-O-OCTADEC-9-EN-1-YL O,O-DIHYDROGEN PHOSPHOROTHIOATE” (priority 2013, published 2017):

Test: Rx100 salt screening (solid formation, XRPD wet/dry, filterability, exposure to RH > 90%)
Settings: for All solvents were evaporated to get a gel: label = base, nature/filterability of the solid
Protocol: We designed a complex and unconventional screening regime to screen for Rx100 crystalline salts. […] The screening regime is described as follows.
Rx100.FA in the form of a viscous liquid and eighteen counter ions were used as starting materials. These counter ions are listed and numbered in Table 4. The numbers will be used for grouping the resulting solids. The screening was performed in three stages.
Stage one (1) included screening 11 counter ions: sodium hydroxide, ammonium hydroxide, ethylenediamine, diethylamine, tromethamine (Tris), hydroxyethyl morpholine, benzathine, dimethylamino ethanol, L-Arginine, L-Lysine, L-Histidine. […] In stage 1, we performed three rounds of experiment.
In the first round of experiment, four (4) solvent systems, i.e., isopropyl alcohol (IPA), diethyl ether (DEE), IPA:water (a mixture at a volume ratio of 95:5) and tetrahydrofuran (THF), were used. Thus in this first round of screening, 44 individual base-acid reactions were conducted in 44 vials.
First, Rx100.FA and each of the bases were mixed in a vial. […] In each of the 44 vials, 211.1 μL of the prepared liquid, which was equivalent to about 35 mg of Rx100.FA, was first dispensed. Then, one equivalent (molar) of each of the 11 bases was dispensed in its corresponding vial. For example, the base sodium hydroxide was added to vials 1, 12, 23 and 34. Similarly, L-histidine was added to vials 11, 22, 33 and 44. Observations were recorded upon addition of the bases in to Rx100.FA.
Second, the solvent in each mixture was depleted. All vials containing the mixtures of Rx100.FA and each of the bases were left under moderate vacuum and nitrogen bleed at room temperature overnight to evaporate the solvent. The vials were then kept under full vacuum for about an hour to make sure the solvents (ethanol and water) are evaporated. Observations on formation of solid upon evaporation were recorded.
Third, solvents were added in each vial to induce solid formation. In each vial, a stir bar and one of the four selected solvents (each 5 volumes with respect to the Rx100.FA) were added. The vials were then capped. IPA was added to the first set of 11 vials (1-11), DEE added to the second set of 11 vials (12-22), IPA:water added to the third set of 11 vials (23-33), and THF added to the fourth set of 11 vials (34-44). The vials were left at room temperature while stirring for at least 5 hours. Observations were recorded.
The first set of XRPD analyses were recorded as “wet” samples. The solids were dried under vacuum for 1 hour and at room temperature followed by XRPD as “dry” sample. The dry solid was then exposed to relative humidity of more than 90% overnight followed by XRPD analysis. For XRPD naming, a number and a letter were used. The number refers to the counter ion and the letter refers to the chronological discovered XRPD pattern of that particular salt.
In the second round of experiment of stage one, another four (4) solvent systems, i.e., methanol (MeOH), tert-Butyl methyl ether (tBME), ethyl acetate and toluene, were used in the same 44 vials as used in the first round experiment. The solvents in all 44 vials from the first round were evaporated to dryness under vacuum and nitrogen bleed. The 4 new solvents were then added into the vials. Methanol was added to the first set of 11 vials (1-11), tBME added to the second set of 11 vials (12-22), Ethyl acetate added to the third set of 11 vials (23-33), and Toluene added to the fourth set of 11 vials (34-44). The same procedure as in the first round of experiment was followed for these new solvents and samples were taken for XRPD analysis.
In the third round of experiment, effect of base equivalence was assessed. […] After addition of the extra base, the previous solvent was evaporated and new solvents added.

[1] = Rx100 salt formed with the named base, XRPD

Glycine
Filterability (Rx100 salt formed with the named base): no
Crystallinity [1]: no
Polymorphic behavior [1]: Multiple patterns on XRPD
Solid upon evaporation (Y/N) (stage 3, 35 mg Rx100 free acid + base (label = base), 1.05 eq, L-lysine 2.00 eq): Gel
All solvents were evaporated to get a gel (stage 3, 1.05 eq, L-lysine 2.00 eq, solvent MeOH:Water [9:1]): Greasy.
All solvents were evaporated to get a gel (stage 3, 1.05 eq, L-lysine 2.00 eq, solvent MeOH): Greasy.
